How the values were obtained:
[1] = biological target: Fibroblast growth factor receptor 2 (Homo sapiens, UniProt P21802); assay: Inhibition FGFR2
[2] = biological target: Hepatocyte growth factor receptor (Homo sapiens, UniProt P08581); assay: Inhibition cMet

Sequences of proteins named here, by UniProt entry; tags and fusion partners are left off. A change or cut given only in a name is not applied to a line headed by its entry.
UniProt P21802, whole entry: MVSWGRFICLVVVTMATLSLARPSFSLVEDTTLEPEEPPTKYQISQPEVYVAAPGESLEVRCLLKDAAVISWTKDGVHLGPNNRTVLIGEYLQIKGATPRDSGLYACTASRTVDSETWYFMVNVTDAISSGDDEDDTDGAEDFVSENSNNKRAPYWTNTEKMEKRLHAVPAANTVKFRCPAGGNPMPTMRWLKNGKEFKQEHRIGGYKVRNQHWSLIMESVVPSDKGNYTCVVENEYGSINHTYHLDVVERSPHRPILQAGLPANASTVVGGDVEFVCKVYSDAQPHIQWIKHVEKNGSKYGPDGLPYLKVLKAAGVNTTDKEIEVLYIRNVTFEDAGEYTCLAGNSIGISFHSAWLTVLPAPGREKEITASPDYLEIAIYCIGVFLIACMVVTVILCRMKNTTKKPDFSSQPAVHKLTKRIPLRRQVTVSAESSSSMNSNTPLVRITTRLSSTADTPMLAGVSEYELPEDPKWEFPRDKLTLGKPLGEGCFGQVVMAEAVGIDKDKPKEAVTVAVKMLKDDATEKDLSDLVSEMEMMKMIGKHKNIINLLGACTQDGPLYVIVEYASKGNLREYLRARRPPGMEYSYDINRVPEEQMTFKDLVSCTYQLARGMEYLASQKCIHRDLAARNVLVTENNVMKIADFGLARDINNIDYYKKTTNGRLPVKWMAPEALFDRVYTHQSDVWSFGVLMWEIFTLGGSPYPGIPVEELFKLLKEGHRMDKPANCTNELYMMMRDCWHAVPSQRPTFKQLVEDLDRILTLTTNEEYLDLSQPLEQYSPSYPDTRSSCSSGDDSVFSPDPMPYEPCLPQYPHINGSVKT
UniProt P08581: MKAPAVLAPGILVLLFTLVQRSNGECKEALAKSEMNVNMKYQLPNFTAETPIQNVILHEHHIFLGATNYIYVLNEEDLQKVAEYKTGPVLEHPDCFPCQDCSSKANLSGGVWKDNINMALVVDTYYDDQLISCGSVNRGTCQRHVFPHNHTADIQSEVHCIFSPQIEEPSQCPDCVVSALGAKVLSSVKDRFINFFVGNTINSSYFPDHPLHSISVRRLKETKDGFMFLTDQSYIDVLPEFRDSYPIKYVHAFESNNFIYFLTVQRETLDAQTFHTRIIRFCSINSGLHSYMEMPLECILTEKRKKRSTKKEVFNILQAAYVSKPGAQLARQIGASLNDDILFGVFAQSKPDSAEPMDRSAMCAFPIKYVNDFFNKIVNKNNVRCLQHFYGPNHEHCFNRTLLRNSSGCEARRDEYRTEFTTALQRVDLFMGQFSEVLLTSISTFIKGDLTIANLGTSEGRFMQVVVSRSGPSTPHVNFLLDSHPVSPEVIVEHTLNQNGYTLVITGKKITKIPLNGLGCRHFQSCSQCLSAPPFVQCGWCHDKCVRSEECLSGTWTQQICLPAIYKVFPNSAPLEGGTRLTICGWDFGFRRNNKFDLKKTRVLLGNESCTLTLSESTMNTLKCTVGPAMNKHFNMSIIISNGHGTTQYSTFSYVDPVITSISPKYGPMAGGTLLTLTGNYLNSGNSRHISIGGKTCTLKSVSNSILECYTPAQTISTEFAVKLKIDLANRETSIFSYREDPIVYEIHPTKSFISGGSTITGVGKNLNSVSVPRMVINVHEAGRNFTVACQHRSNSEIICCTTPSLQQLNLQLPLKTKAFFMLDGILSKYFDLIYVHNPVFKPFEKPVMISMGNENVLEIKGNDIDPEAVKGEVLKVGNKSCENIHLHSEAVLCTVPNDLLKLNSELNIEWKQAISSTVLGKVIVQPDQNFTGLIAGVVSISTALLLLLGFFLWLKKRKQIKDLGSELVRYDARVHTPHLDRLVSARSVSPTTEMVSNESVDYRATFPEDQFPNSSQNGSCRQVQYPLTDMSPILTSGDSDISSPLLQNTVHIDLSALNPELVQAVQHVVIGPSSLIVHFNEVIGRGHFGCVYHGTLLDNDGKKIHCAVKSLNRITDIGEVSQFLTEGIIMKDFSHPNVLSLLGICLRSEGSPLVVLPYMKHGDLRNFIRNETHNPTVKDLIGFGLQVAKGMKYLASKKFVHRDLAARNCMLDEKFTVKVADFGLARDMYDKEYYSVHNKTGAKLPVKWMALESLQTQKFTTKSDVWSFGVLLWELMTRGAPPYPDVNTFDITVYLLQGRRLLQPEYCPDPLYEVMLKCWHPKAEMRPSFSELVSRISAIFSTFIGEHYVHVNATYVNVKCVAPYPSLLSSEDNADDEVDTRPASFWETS

IC50 [1]: > 10 µM | IC50 [2]: 10 µM
Structure (SMILES): NS(=O)(=O)c1ccc(Nc2nc(N3CCOCC3)nc3[nH]cnc23)cc1

From ChEMBL document CHEMBL1177660, “Discovery of novel purine derivatives with potent and selective inhibitory activity against c-Src tyrosine kinase” (Bioorg Med Chem, 2010)
